Assay results: patent US6620839B2, “1,3-disubstituted and 1,3,3-trisubstituted pyrrolidines as histamine-3 receptor ligands and their therapeutic applications” (Abbott Laboratories, priority 2000, dated 2003)

Sequences of proteins named here, by UniProt entry; tags and fusion partners are left off. A change or cut given only in a name is not applied to a line headed by its entry.
UniProt Q9QYN8: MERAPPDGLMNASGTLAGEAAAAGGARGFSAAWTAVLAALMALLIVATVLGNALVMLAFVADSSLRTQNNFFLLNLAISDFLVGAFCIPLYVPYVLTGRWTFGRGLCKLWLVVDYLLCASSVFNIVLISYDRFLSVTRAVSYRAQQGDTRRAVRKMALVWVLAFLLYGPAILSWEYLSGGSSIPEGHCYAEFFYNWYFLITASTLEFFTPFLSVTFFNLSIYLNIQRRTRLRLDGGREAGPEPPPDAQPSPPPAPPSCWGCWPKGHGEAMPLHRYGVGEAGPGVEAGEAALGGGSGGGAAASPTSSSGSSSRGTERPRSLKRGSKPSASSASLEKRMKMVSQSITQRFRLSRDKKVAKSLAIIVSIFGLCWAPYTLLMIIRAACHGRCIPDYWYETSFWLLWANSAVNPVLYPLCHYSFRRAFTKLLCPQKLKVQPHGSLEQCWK

Biological target: T1, histamine-3 receptor (Rattus norvegicus, UniProt Q9QYN8)
T1 construct: from tissue; host or cells: male Sprague-Dawley rat brain cortex membranes
Assay: Histamine-3 receptor binding, (3H)-N-α-methylhistamine displacement in rat cortical membranes
Settings: male Sprague-Dawley rat brain cortical membranes; (3H)-N-α-methylhistamine ~0.6 nM; 30 minutes at 25° C.; Cheng-Prusoff
Description: Briefly, male Sprague-Dawley rat brain cortices were homogenized (1 g tissue/10 mL buffer) in 50 mM Tris-HCl/5 mM EDTA containing protease inhibitor cocktail (Calbiochem) using a polytron set at 20,500 rpm. Homogenates were centrifuged for 20 minutes at 40,000×g. The supernatant was decanted, and pellets were weighed. The pellet was resuspended by polytron homogenization in 40 mL 50 mM Tris-HCl/5 mM EDTA with protease inhibitors and centrifuged for 20 minutes at 40,000×g. […] Test compounds were dissolved in DMSO to provide 20 mM solution, serially diluted and then added to the incubation mixtures prior to initiating the incubation assay by addition of the membranes. Thioperamide (3 μM) was used to determine nonspecific binding. Binding incubations were conducted for 30 minutes at 25° C. and terminated by addition of 2 mL of ice cold 50 mM Tris-HCl (pH 7.7) and filtration through 0.3% polyethylenimine-soaked Unifilter plates (Packard). These filters were washed 4 additional times with 2 mL of ice-cold 50 mM Tris-HCl and dried for 1 hour. Radioactivity was determined using liquid scintillation counting techniques. Results were analyzed by Hill transformation and Ki values were determined using the Cheng-Prusoff equation.

## N-((3R)-1-{3-[(4′-cyano[1,1′-biphenyl]-4-yl)oxy]propyl}pyrrolidinyl)-4-fluoro-N-(4-fluorobenzoyl)benzamide [Example 129]
  Ki: 192 nM
